Paper PMC4599966

B1: optineurin full-length wild-type (two-hybrid prey) [not stated] / LC3B (two-hybrid bait) [not stated] (parent)
chain 1: MSHQPLSCLTEKEDSPSESTGNGPPHLAHPNLDTFTPEELLQQMKELLTENHQLKEAMKLNNQAMKGRFEELSAWTEKQKEERQFFEIQSKEAKERLMALSHENEKLKEELGKLKGKSERSSEDPTDDSRLPRAEAEQEKDQLRTQVVRLQAEKADLLGIVSELQLKLNSSGSSEDSFVEIRMAEGEAEGSVKEIKHSPGPTRTVSTGTALSKYRSRSADGAKNYFEHEELTVSQLLLCLREGNQKVERLEVALKEAKERVSDFEKKTSNRSEIETQTEGSTEKENDEEKGPETVGSEVEALNLQVTSLFKELQEAHTKLSEAELMKKRLQEKCQALERKNSAIPSELNEKQELVYTNKKLELQVESMLSEIKMEQAKTEDEKSKLTVLQMTHNKLLQEHNNALKTIEELTRKESEKVDRAVLKELSEKLELAEKALASKQLQMDEMKQTIAKQEEDLETMTILRAQMEVYCSDFHAERAAREKIHEEKEQLALQLAVLLKENDAFEDGGRQSLMEMQSRHGARTSDSDQQAYLVQRGAEDRDWRQQRNIPIHSCPKCGEVLPDIDTLQIHVMDCII
chain 2: not shown

Variants of: B1
Assay: mammalian 2-hybrid assay
Details: with LC3B (two-hybrid bait); CHOK.1 cells; LC3B as bait; read off a plot

| Variant | response |
| --- | --- |
| chain 1 F178A | 19 |
